Data on 55 compounds can be found in PubChem BioAssay AID493012 (Sanford-Burnham Center for Chemical Genomics, 2011).

By UniProt entry, the sequences of proteins in these tests, tags left out.
UniProt Q9HC16, whole entry: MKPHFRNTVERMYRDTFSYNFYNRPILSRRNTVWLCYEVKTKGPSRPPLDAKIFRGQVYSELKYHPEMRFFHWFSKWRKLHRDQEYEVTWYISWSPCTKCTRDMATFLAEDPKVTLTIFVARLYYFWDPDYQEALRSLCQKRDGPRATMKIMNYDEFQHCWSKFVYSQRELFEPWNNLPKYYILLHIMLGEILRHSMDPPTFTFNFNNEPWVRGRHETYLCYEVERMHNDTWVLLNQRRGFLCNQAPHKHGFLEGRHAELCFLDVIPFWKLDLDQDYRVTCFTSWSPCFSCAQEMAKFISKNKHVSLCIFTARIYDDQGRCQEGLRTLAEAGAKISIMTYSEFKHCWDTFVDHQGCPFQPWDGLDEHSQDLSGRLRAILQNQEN

The list shows a part of the results, in another mix than the full data. Some salts or complexes appear as unconnected parts, following the source record. The source made the active and inactive calls.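 Rule for the calls: active = inhibition of at least 40% at 20 µM, with no more than 30% in the related APOBEC3A deaminase screen; inactive = the rest.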

For the assay, the target named is DNA dC->dU-editing enzyme APOBEC-3G (Homo sapiens) (UniProt Q9HC16). In words: APOBEC3G DNA deaminase inhibitors, primary screen, biochemical, fluorescence, single-stranded DNA substrate, uHTS (AID 493012).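 Note: plate controls were DMSO wells with A3G for no effect and wells lacking A3G enzyme for full effect.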 As to conditions: recombinant A3G, ssDNA deamination FAM/TAMRA fluorescence; at 20 µM; hits give high values.
For the compound `COc1ccccc1OP(C)(=O)Nc1ccccc1` (stereo not given), the inhibition was inactive: -12.7%.
In the case of `CP(=O)(Nc1ccccc1Br)Oc1ccccc1` (stereo not given) it was inactive: -4.83%; in that of `CP(=S)(Nn1cnnc1)Oc1ccccc1` (stereo not given), inactive: -7.73%; in that of `CP(=O)(Nc1ccccn1)Oc1ccc(Cl)cc1` (stereo not given), inactive: 6.18%.
The same measure for `CCOP(C)(=S)SCC(=O)NC(C)C(=O)O` (stereo not given): inactive: -5.99%.
As for `CCOC(=O)c1ccc(NP(C)(=O)Oc2ccc(OC)cc2)cc1` (stereo not given), the inhibition was inactive: -6.07%.
As for `O=[N+]([O-])c1cc([N+](=O)[O-])c(O)c([N+](=O)[O-])c1.c1ccc(Oc2ccncc2)cc1`, the inhibition was inactive: -0.881%.
Consider `Cc1cc(C)cc(OP(C)(=O)Nc2ccc(SC(F)(F)F)cc2)c1` (stereo not given), for which the inhibition was inactive: -2.53%.
The same measure for `CP(=O)(NC(=O)Nc1ccccc1)Oc1ccccc1` (stereo not given): inactive: -7.5%; for `CCc1ccc(OP(C)(=O)N2CCN(c3ccc([N+](=O)[O-])cc3)CC2)cc1` (stereo not given): inactive: -6.89%; for `CP(=O)(Oc1ccccc1)OC(c1ccccc1)C(F)(F)F` (stereo not given): inactive: -2.2%.
For `Cc1cccc(C)c1OP(C)(=O)Nc1ccc(SC(F)(F)F)cc1` (stereo not given), the inhibition was inactive: -6.74%.
Take `CP(=O)(Nc1ccc(SC(F)(F)F)cc1)Oc1ccc(Cl)cc1` (stereo not given): the inhibition is inactive: -3.83%.
In the case of `CCN(CC)CCCOC(=O)C(O)(c1ccccc1)c1ccccc1`, the inhibition is inactive: 3.7%.
Turning to `COc1ccc(OP(C)(=O)Nc2cccc(F)c2)cc1` (stereo not given), the inhibition is inactive: -0.41%.
In the case of `COc1ccccc1OP(C)(=O)Nc1cc(Cl)ccc1C` (stereo not given) it was inactive: -6.8%; in that of `Cc1cc(C)cc(OP(C)(N)=O)c1` (stereo not given), inactive: -11.1%; in that of `CCOC(=O)c1ccc(NP(C)(=O)Oc2ccccc2)cc1` (stereo not given), inactive: -2.25%.
As to `Cc1ccc(NP(C)(=O)Oc2ccccc2)c(C)c1` (stereo not given), the inhibition is inactive: -1.55%.
The same measure for `COc1ccccc1OP(C)(=O)Nc1ccc(C)cc1` (stereo not given): inactive: -1.7%; for `Cc1cccc(C)c1OP(C)(N)=O` (stereo not given): inactive: -4.27%; for `CC(C)(C)c1ccc(OP(C)(=O)Nc2ccc(SC(F)(F)F)cc2)cc1` (stereo not given): inactive: -6.23%.
In the case of `O=[N+]([O-])c1cc([N+](=O)[O-])c(Nc2cccnc2)c([N+](=O)[O-])c1` it was inactive: -0.877%; in that of `CC1=NCCc2c1[nH]c1ccccc21.O=[N+]([O-])c1cc([N+](=O)[O-])c(O)c([N+](=O)[O-])c1`, inactive: -4.64%.
On to `O=C(O)c1cccc(Nc2c([N+](=O)[O-])cc([N+](=O)[O-])cc2[N+](=O)[O-])c1`, for which the inhibition is inactive: -0.495%.
In the case of `Cc1cc(C)cc(OP(C)(=O)Nc2ccccn2)c1` (stereo not given) it was inactive: -5.62%; in that of `CP(=O)(Nc1cccc(Br)c1)Oc1ccccc1` (stereo not given), inactive: -8.7%.
Turning to `Cc1ccc(C)c(NP(C)(=O)Oc2ccccc2)c1` (stereo not given), the inhibition was inactive: 2.47%.
In the case of `Cc1cc(C)cc(OP(C)(=O)Nc2ccc(C)cc2C)c1` (stereo not given) it was inactive: -5.39%; in that of `CCOC(=O)c1ccc(NP(C)(=O)Oc2cc(C)cc(C)c2)cc1` (stereo not given), inactive: 0.714%.
The same measure for `COc1ccccc1OP(C)(=O)Nc1cccc(Br)c1` (stereo not given): inactive: -2.2%; for `Cc1nc2ccc3ccccc3c2s1.O=[N+]([O-])c1cc([N+](=O)[O-])c(O)c([N+](=O)[O-])c1`: inactive: -6.14%; for `O=[N+]([O-])c1cc([N+](=O)[O-])c(-c2cnn(-c3ccccc3)c2)c([N+](=O)[O-])c1`: inactive: -8.84%.
On to `O=[N+]([O-])c1cc([N+](=O)[O-])c(-n2nnc3ccccc32)c([N+](=O)[O-])c1`, for which the inhibition is inactive: -2.64%.
`CCCOc1ccc(NP(C)(=O)Oc2ccc(Cl)cc2)cc1` (stereo not given): the inhibition is inactive: -2.14%.
In the case of `CP(=O)(Nc1ccc(SC(F)(F)F)cc1)Oc1ccccc1` (stereo not given) it was inactive: -5.17%.
The same measure for `COc1ccccc1OP(C)(=O)Nc1c(C)cccc1C` (stereo not given): inactive: -3.96%; for `CN1CCCCC1COC(=O)C1(O)c2ccccc2CCc2ccccc21` (stereo not given): inactive: -0.155%.
Consider `CCOC(=O)C(CC)C1=NC(C)(C)Cc2ccccc21.O=[N+]([O-])c1cc([N+](=O)[O-])c(O)c([N+](=O)[O-])c1` (stereo not given), for which the inhibition was inactive: -4.49%.
The same measure for `CC1=C2N=C(C=C3N=C(C(C)=C4[N-][C@@](C)([C@@H]5N=C1[C@](C)(CCC(=O)NC[C@@H](C)OP(=O)([O-])O[C@H]1[C@@H](O)[C@@H](n6cnc7cc(C)c(C)cc76)O[C@@H]1CO)[C@H]5CC(N)=O)[C@@](C)(CC(N)=O)[C@@H]4CCC(N)=O)[C@@](C)(CC(N)=O)[C@@H]3CCC(N)=O)C(C)(C)[C@@H]2CCC(N)=O.[C-]#N.[Co+3]`: inactive: 6.25%; for `O=[N+]([O-])c1cc([N+](=O)[O-])c(Nc2nnnn2CCO)c([N+](=O)[O-])c1`: inactive: -4.53%; for `O=[N+]([O-])c1cc([N+](=O)[O-])c(NCC2CCS(=O)(=O)C2)c([N+](=O)[O-])c1` (stereo not given): inactive: -7.92%.
In the case of `COc1ccc(NP(C)(=O)Oc2ccccc2OC)cc1` (stereo not given) it was inactive: -9.35%; in that of `CN(C)CCOC(=O)C(O)(c1ccccc1)C1CCCCC1` (stereo not given), inactive: -2.41%; in that of `COc1ccc(OP(C)(=O)Nc2cccc(Br)c2)cc1` (stereo not given), inactive: 3.69%.
In the case of `Cc1ccccc1NP(C)(=O)Nc1ccccc1C` it was inactive: 3.45%.
As for `CP(=O)(Nc1ccc2c(c1)OCCO2)Oc1ccccc1` (stereo not given), the inhibition was inactive: -4.46%.
Turning to `CCOP(C)(=S)SCC(=O)NC(C)(CC)C(=O)O` (stereo not given), the inhibition is inactive: -4.74%.
Consider `CP(=O)(Nc1ccc(SC(F)(F)F)cc1)Oc1ccc(F)cc1` (stereo not given), for which the inhibition was inactive: -2.82%.
Consider `COc1ccc2c(c1O)-c1c(O)c(OC)cc3c1[C@H](C2)[N+](C)(C)CC3.O=[N+]([O-])c1cc([N+](=O)[O-])c([O-])c([N+](=O)[O-])c1[O-]`, for which the inhibition was inactive: -4.76%.
With `O=C(OCCN1CCN(CCOCc2ccccc2)CC1)C(O)(c1ccccc1)c1ccccc1`, the inhibition is inactive: -1.03%.
For `O=C(OC1CN2CCC1CC2)c1ccc([N+](=O)[O-])cc1` (stereo not given), the inhibition was inactive: -4.26%.
Regarding `CC(C)c1ccc(OP(C)(=O)Nc2ccc(SC(F)(F)F)cc2)cc1` (stereo not given), the inhibition is inactive: -4.98%.
In the case of `CP(=O)(Nc1ccccc1F)Oc1ccccc1` (stereo not given) it was inactive: -2.25%.
`O=[N+]([O-])c1cc([N+](=O)[O-])c(OC2CCCCC2O)c([N+](=O)[O-])c1` (stereo not given): the inhibition is inactive: -4.84%.
